Yeast mating assay B: variants of the scFv Ab-14

Source: Li et al. 2023 (doi:10.1038/s41467-023-39022-2), MIT Lincoln Laboratory and A-Alpha Bio; data file from the FLAb repository.

Antigen: PDVDLGDISGINAS, a 14-residue peptide of the SARS-CoV-2 spike HR2 region.

Each scFv is VH, the linker GGGGSGGGGSGGGGS, VL, as in the parent Ab-14, and differs from it in the CDRs of the light chain only.
VH: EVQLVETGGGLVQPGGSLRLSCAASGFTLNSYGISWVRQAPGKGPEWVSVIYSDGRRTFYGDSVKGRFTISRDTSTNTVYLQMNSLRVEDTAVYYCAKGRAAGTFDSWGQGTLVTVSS
VL: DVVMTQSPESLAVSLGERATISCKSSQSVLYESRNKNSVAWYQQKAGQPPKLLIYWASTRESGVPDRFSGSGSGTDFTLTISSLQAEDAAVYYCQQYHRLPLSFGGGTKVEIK

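The variants were designed computationally from a first round of random CDR variants and then made and measured. Their group label is 14L_Ctrl (Ctrl: baseline library sampled from a position-specific scoring matrix, with some repeated check sequences). AlphaSeq pools MATa yeast showing the antibodies with MATalpha yeast showing the peptide. Mating (16 h, 30 °C) was followed by selection of diploids and sequencing of their barcodes. Read counts were normalised to the haploid input and turned into Kd by a linear fit to BCL2-family pairs of known affinity, for each replicate. Mating was done six times.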

Each variant is given by its three light chain CDRs, as the data file delimits them; those of the parent are KSSQSVLYESRNKNSVA, WASTRES, QQYHRLPLS.
Scale: log10 of Kd in nM, estimated from mating counts; low values are strong binders.
An entry "n.d." has no value in the source: the pair was not observed among the diploids in that replicate. This suggests poor binding but is not conclusive.
Empty control strains, which show no peptide, gave a signal in 4% of pairings with all light chain designs; the median was 2.64 and 95% of these signals were weaker than 1.59. No background was subtracted. For each scFv, signals with the empty controls are counted beside the result, with their mean in brackets.

CDR-L1,CDR-L2,CDR-L3,"replicates, log10 nM",signal with controls
KMSQSVLNESRNKNSVA,DASTRES,QVYHRLPLS,0.44 / 0.50 / 0.04 / 0.30 / 0.22 / 0.22,0/18
KLNQSVLYESRNKNSVA,WGSTRES,QQYHHLPLS,0.73 / 1.03 / 0.46 / 0.62 / 0.80 / 1.02,0/18
KISQSVLYESRNKNSIA,WASTRES,QCYHRLPLS,n.d. / n.d. / n.d. / 1.84 / n.d. / n.d.,0/18
KSSYMVLYESRNKNSVA,EASTRES,QQDHRLPLS,n.d. / n.d. / n.d. / n.d. / n.d. / n.d.,0/18
KSSQSVLYESRNFNSVA,GASTRES,GQYHDLPLS,n.d. / n.d. / 1.36 / 2.10 / 2.16 / 2.01,1/18 (1.89)
KSSQSVLYLSRNKNSVA,WASTRET,QQLHRLPLS,n.d. / n.d. / n.d. / n.d. / 1.78 / 2.34,1/18 (1.95)
KSCQSVLYESRNKNSVA,WASTRES,QQYHRMPLS,n.d. / n.d. / n.d. / n.d. / n.d. / n.d.,0/18
KVSQSLGYESRNTNSVA,WASTRES,QQYHRLPLS,1.94 / 0.91 / 1.80 / 1.14 / 1.31 / 1.15,0/18
KLSQSVLYESHQKNSVA,WASTRES,QQYHRLPLS,n.d. / 1.04 / 1.06 / 1.57 / 1.91 / 2.32,0/18
KSSQSVSYESMNKNSVA,WASTRES,QQYHRLPLT,1.47 / 1.25 / 0.48 / 1.11 / 1.39 / 1.55,0/18
KSSDSVLYESRNKNSVA,WASTREW,QQYHYLPLS,n.d. / n.d. / n.d. / n.d. / n.d. / n.d.,0/18
KSSQSVLGESRNKNSVA,QASTRES,QQYWRLPLS,0.01 / 0.34 / -0.30 / 0.05 / 0.01 / -0.17,0/18
KSSNSVLYESRNKYQVA,WASTRES,QQDHRLPLS,n.d. / n.d. / n.d. / n.d. / n.d. / n.d.,0/18
KSSQSVLYYSRNKNSVA,NASTRES,QQYHRLPLS,0.90 / 0.98 / 0.54 / 0.53 / 0.61 / 0.97,1/18 (3.16)
KSSQSVLYESREKNPVA,WASHRES,QQYHDLPLS,n.d. / n.d. / n.d. / n.d. / n.d. / n.d.,1/18 (2.13)
KSSQSVLYESRNKNSVA,DASIRES,QQYHRLPLS,0.77 / 0.51 / 1.11 / 0.47 / 0.48 / 0.84,0/18
KSSQSVLYMSCNKNSVA,WASTRES,QQYGRLPLS,n.d. / n.d. / n.d. / n.d. / 3.24 / n.d.,1/18 (2.16)
KSSQSVMYESRNKNSVA,AASTRES,QQYHRDPLS,2.01 / 2.44 / 3.01 / 1.69 / 1.74 / 1.88,0/18
KSSQSHLYESNNKNSVA,WASTRES,QQYHRLLIS,n.d. / n.d. / n.d. / n.d. / n.d. / -0.03,0/18
KSSQSVLYDSRNKNSVA,CASTRES,QQYHRLPLS,n.d. / n.d. / n.d. / n.d. / n.d. / 2.93,1/18 (2.65)
KMSQSVLYESRNMNSVA,WASTREA,QQYHRLPLS,0.65 / 0.69 / 0.30 / 0.55 / 0.34 / 0.71,3/18 (2.82)
KISRSDLYESRNKNSVA,SASTRES,QQYHRLPLS,0.04 / -0.21 / -0.25 / -0.32 / -0.28 / -0.06,1/18 (3.81)
KLEQSVLYESRNKNSVA,WASTRES,QQYHRLPLS,0.53 / 0.62 / 0.20 / 0.44 / 0.57 / 0.52,0/18
KSSQSVLEESRNKNSVA,WASMRES,QQYHRLPLS,2.11 / 0.87 / 0.95 / 0.89 / 0.96 / 1.15,0/18
KMSDSVLYESRNKNSVA,WASTRES,QQYVRLPLS,n.d. / n.d. / n.d. / n.d. / 2.06 / n.d.,1/18 (1.98)
KFSVSVLYESRNGNSVA,GASTRES,QQYHRLPLS,-0.13 / -0.07 / -0.30 / -0.07 / -0.30 / 0.17,0/18
KVSQSVLQESRNKNSVA,WASTRES,QQMHHLPLS,n.d. / n.d. / 3.10 / n.d. / n.d. / n.d.,3/18 (2.29)
KSSQSVLYESRNKNSVA,WANTRES,QQYHRLPLS,1.32 / n.d. / n.d. / 2.37 / n.d. / 2.52,1/18 (2.40)
KSSQSVLYESRNKNSVA,WASTRPS,QQYHRLPPS,n.d. / n.d. / n.d. / n.d. / n.d. / n.d.,0/18
KCSQSVLYESRNWNSVA,WAHERES,QQYHRLPLS,1.93 / n.d. / 1.96 / 2.27 / 1.30 / 2.09,1/18 (3.41)
KSSQSVSYESDNMNSVA,WASTRES,QQYHRLPLS,1.50 / 0.96 / 0.84 / 1.18 / 1.31 / 1.65,3/18 (2.88)
KSSQSVLYESRQSNSVA,WADTRES,QQYHRLPLS,n.d. / 1.47 / 2.92 / n.d. / 2.67 / 2.37,0/18
YSSQSVLYESRNKNSVA,HASTRES,QQYHCLVLS,1.52 / n.d. / n.d. / n.d. / n.d. / n.d.,0/18
KSSQSVLYETRNKNSVA,NASERED,QQYHRLPLL,1.59 / 1.44 / 1.21 / 1.36 / 1.54 / 1.48,0/18
RSSQSVLYDSRNKNSVA,DASARES,QQYQRLPLS,0.73 / 0.39 / 0.08 / -0.24 / 0.78 / 0.38,2/18 (2.30)
KSDQSVLYESRNKNSVA,WASMRES,QQYHRLPLD,n.d. / n.d. / n.d. / n.d. / n.d. / 2.04,0/18
KSSQSVLYESRNKNSVA,WASTREA,QQYHRLPLS,1.48 / 1.39 / 1.46 / 1.45 / 1.68 / 1.77,1/18 (2.38)
KSSQSVLYESRNKNSVA,WASTRVF,FQYHRLPLS,n.d. / n.d. / n.d. / n.d. / n.d. / n.d.,2/18 (3.25)
KASQSVLYESDNKNSVA,WASTRES,QQYHRLPLS,0.33 / -0.01 / 0.03 / -0.08 / 0.24 / -0.05,0/18
KSSQAVLYESRNKGSVA,AASTRES,QQYHRLPWS,n.d. / 2.90 / n.d. / n.d. / 4.45 / n.d.,2/18 (2.56)
KSSQSLPYESRNKNSVA,WASTRES,QLYHRLPLS,1.39 / 1.99 / 1.92 / 2.96 / 2.89 / n.d.,0/18
KCSQALGYESRNKNSVA,WASTRER,QQYHRLPLS,1.54 / 1.60 / 1.35 / 1.50 / 1.51 / 1.69,2/18 (2.92)
VSSQSVLNESRNKNSVA,DASTRES,QQYHRLPLS,0.69 / 0.66 / 0.59 / 0.53 / 0.55 / 0.66,1/18 (3.50)
KIEQSVLVESRNKNSVA,WASTRES,QQYHRLPLS,n.d. / 3.30 / 2.29 / 1.48 / 1.96 / 1.46,1/18 (2.08)
KSSQSVLYESRNKNSVA,WASTRFS,QQYHRLPLS,2.30 / 0.17 / 0.84 / 1.02 / n.d. / 1.68,0/18
KSSQSVLYESRNKNSVA,WASTRES,QCIHRLPLS,n.d. / 1.90 / n.d. / 4.33 / n.d. / n.d.,1/18 (2.94)

The opening 4 entries, copied out:

| CDR-L1 | CDR-L2 | CDR-L3 | replicates, log10 nM | signal with controls |
|---|---|---|---|---|
| KMSQSVLNESRNKNSVA | DASTRES | QVYHRLPLS | 0.44 / 0.50 / 0.04 / 0.30 / 0.22 / 0.22 | 0/18 |
| KLNQSVLYESRNKNSVA | WGSTRES | QQYHHLPLS | 0.73 / 1.03 / 0.46 / 0.62 / 0.80 / 1.02 | 0/18 |
| KISQSVLYESRNKNSIA | WASTRES | QCYHRLPLS | n.d. / n.d. / n.d. / 1.84 / n.d. / n.d. | 0/18 |
| KSSYMVLYESRNKNSVA | EASTRES | QQDHRLPLS | n.d. / n.d. / n.d. / n.d. / n.d. / n.d. | 0/18 |

A sequence measured in both rounds can read differently, since the two assays cover different ranges.
The authors' rule: three or more of the six replicates give a measured affinity, fewer mean a poor binder.